Measured values reported in ChEMBL document CHEMBL1123005, “1-Azacycloalkyl-1,4-benzodiazepin-2-ones with antianxiety-antidepressant actions” (J Med Chem, 1985).

By UniProt entry, the sequences of proteins in these tests, tags left out. Where a name states a change or a piece, a line headed by the entry shows the natural chain unless it says otherwise.
UniProt O09028: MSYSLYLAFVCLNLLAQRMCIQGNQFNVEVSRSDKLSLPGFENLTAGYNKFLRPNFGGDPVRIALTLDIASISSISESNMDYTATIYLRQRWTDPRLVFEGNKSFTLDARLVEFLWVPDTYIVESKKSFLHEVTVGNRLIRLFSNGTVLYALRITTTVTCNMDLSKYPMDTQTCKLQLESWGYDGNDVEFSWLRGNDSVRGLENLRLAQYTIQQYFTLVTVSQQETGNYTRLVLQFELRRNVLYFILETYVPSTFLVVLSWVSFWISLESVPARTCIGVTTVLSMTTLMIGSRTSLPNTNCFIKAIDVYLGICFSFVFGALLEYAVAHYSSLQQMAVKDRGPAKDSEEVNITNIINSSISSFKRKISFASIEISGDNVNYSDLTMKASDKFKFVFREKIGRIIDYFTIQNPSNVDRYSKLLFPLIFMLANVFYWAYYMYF
UniProt P18508: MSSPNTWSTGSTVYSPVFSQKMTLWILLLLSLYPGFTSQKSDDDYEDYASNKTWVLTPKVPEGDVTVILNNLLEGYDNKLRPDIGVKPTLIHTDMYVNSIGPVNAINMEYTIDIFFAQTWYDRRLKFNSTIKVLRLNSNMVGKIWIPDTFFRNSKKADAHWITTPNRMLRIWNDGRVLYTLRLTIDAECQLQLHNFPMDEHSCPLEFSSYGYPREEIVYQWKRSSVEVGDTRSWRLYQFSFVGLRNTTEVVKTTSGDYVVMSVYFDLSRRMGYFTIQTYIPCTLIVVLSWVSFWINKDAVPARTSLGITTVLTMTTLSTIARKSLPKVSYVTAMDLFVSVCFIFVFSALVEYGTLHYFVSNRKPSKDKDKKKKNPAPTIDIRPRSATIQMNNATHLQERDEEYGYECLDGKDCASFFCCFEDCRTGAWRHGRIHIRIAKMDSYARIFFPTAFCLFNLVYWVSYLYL
UniProt P19969: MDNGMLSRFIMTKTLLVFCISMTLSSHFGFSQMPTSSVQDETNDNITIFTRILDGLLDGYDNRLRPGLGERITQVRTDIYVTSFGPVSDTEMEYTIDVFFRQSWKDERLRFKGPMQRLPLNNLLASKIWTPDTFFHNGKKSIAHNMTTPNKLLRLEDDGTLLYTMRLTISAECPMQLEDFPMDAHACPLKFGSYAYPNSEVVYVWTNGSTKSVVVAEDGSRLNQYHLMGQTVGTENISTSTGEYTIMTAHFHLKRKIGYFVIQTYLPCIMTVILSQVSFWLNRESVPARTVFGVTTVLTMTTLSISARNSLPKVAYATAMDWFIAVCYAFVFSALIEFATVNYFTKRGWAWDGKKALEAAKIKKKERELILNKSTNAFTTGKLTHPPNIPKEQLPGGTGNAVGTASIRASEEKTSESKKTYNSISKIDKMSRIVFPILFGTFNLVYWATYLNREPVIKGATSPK
UniProt P20236: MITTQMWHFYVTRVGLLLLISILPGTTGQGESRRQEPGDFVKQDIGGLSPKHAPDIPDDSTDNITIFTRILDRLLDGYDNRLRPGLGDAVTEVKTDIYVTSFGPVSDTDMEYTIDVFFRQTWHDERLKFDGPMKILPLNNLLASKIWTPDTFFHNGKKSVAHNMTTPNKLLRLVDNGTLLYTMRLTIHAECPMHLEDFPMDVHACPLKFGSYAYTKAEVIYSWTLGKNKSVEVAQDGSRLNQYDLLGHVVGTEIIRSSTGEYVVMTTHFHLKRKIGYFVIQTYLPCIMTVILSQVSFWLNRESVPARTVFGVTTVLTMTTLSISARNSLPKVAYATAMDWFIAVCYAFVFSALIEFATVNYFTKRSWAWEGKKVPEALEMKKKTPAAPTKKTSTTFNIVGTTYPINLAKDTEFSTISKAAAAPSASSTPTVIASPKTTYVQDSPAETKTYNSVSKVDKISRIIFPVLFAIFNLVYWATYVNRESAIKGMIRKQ
UniProt P23574: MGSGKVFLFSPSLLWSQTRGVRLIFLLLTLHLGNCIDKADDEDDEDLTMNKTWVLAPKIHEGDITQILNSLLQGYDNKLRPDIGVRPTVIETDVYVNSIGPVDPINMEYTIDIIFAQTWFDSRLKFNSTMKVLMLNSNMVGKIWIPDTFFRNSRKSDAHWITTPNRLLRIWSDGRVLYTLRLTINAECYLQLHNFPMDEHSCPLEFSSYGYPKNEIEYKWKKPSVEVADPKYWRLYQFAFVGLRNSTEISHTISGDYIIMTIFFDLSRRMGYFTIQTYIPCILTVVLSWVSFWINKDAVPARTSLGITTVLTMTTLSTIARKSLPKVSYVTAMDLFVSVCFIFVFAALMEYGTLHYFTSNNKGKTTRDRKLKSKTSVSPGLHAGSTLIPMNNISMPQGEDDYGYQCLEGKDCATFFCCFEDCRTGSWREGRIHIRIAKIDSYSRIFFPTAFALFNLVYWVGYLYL
UniProt P23576: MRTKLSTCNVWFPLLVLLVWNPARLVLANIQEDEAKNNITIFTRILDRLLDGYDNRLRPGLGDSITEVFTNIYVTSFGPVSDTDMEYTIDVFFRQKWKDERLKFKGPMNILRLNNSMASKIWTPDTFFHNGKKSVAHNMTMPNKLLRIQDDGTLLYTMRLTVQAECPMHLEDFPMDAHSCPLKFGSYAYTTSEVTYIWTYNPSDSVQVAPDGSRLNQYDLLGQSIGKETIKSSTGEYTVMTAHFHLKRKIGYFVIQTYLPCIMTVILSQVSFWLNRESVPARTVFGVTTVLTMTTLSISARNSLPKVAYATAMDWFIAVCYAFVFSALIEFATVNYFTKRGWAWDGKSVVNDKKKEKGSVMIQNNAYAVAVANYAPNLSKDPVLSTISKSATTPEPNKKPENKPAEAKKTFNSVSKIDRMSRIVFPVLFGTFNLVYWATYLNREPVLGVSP
UniProt P28471: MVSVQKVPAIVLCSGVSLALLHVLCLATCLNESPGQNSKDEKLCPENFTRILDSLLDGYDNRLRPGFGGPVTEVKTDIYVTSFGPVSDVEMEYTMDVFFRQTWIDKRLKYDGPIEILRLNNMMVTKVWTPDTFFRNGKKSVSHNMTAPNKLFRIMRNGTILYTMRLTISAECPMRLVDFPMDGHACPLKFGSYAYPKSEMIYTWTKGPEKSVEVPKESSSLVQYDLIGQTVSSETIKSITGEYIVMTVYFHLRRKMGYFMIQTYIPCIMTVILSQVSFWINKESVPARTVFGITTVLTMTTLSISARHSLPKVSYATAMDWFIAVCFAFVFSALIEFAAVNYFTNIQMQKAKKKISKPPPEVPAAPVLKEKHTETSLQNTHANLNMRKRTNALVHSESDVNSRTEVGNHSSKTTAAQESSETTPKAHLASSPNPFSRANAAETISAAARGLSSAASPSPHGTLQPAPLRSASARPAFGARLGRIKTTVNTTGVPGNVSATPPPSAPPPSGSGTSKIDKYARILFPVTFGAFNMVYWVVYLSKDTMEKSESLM
UniProt P28473: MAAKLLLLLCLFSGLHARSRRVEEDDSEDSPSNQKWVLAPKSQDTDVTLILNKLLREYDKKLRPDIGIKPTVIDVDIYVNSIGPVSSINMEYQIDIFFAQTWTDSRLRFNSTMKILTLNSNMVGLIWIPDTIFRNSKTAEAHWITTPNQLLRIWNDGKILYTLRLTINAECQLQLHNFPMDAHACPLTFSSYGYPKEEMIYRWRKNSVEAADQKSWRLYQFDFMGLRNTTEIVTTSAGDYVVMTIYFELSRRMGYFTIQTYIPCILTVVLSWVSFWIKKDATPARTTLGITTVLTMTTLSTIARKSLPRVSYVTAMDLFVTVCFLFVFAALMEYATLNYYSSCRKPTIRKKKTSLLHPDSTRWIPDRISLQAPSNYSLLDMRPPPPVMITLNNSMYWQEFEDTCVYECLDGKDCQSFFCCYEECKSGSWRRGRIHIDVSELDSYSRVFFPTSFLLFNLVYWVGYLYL
UniProt P30191: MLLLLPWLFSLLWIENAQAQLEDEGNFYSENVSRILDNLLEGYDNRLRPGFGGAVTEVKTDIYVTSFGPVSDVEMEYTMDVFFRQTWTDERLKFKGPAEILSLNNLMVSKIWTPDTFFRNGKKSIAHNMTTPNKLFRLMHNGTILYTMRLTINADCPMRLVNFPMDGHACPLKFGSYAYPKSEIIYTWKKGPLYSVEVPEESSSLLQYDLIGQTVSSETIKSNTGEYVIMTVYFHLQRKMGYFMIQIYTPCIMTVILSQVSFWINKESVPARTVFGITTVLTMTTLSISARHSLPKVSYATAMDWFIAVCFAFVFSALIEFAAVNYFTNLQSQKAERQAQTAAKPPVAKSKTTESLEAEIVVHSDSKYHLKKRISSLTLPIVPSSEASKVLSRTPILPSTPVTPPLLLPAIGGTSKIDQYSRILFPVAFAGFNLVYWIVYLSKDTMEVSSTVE
UniProt P62813: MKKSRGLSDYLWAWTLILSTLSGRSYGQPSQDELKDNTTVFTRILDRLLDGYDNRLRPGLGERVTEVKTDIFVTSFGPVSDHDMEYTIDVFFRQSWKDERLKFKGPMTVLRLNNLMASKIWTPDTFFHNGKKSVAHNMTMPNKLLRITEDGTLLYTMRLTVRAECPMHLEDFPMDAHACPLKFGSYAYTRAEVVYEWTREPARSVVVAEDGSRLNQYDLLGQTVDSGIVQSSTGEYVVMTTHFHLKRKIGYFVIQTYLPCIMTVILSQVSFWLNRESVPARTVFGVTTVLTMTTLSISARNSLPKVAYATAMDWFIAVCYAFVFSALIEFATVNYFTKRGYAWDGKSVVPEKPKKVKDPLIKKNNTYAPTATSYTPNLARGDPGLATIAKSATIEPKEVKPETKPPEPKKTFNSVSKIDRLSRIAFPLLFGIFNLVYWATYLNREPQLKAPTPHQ
UniProt P63079: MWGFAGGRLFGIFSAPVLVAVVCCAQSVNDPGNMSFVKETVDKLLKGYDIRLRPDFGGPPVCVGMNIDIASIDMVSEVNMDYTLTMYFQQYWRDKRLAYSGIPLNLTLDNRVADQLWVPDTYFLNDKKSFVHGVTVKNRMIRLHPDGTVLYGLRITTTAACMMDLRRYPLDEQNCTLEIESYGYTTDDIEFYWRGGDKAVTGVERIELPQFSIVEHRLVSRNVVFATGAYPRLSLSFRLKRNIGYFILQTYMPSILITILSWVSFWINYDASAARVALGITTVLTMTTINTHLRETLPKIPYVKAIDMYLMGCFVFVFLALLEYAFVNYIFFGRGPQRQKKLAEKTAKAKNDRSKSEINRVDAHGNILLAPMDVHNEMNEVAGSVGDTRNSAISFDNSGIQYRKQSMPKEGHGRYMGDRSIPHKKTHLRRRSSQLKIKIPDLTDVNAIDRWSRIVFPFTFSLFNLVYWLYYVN
UniProt P63138: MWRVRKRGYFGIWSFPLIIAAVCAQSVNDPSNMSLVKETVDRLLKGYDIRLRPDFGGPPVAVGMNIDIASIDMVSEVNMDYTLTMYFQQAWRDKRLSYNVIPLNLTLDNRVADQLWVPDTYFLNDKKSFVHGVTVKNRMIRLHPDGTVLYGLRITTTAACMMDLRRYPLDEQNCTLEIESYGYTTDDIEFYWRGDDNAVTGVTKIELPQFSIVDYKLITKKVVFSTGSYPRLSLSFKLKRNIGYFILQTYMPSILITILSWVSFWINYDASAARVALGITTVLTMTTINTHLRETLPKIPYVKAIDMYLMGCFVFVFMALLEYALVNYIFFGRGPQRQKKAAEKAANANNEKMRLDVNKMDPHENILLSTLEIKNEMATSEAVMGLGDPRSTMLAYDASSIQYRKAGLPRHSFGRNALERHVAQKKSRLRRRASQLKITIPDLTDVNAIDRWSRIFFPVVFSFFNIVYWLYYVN
UniProt Q9ES14: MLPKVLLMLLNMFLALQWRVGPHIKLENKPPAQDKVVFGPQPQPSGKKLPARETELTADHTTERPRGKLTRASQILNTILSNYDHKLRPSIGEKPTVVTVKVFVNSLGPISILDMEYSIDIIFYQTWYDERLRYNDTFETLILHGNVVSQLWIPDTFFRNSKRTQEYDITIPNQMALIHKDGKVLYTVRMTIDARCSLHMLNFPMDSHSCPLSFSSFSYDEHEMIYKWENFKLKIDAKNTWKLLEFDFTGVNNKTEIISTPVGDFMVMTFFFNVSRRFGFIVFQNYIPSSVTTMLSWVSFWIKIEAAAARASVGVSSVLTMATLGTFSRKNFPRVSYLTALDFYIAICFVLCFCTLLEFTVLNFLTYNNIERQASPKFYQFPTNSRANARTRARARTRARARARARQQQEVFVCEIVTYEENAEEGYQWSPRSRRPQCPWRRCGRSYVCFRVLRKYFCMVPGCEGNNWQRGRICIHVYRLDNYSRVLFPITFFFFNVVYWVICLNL

Target: GABA-A receptor; anion channel (Rattus norvegicus) (UniProt O09028+P15431+P18506+P18508+P19969+P20236+P23574+P23576+P28471+P28473+P30191+P62813+P63079+P63138+Q91ZM7+Q9ES14)
Test: Binding constant was determined by displacing potential to [3H]-diazepam binding in cerebral cortex homogenates of rat
Format: tissue-based
Outline: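 Wistar rat cerebral cortex homogenate incubated with compound and 2 nM [3H]diazepam at 0 °C for 60 min. Bound label trapped on glass filters and counted by scintillation. Ki = IC50/(1 + L/Kd).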

| Structure (SMILES) | K2 [µM] |
| --- | --- |
| CN1CCC(N2C(=O)CN=C(c3ccccc3)c3cc(Cl)ccc32)CC1 | 0.49 |
| CN1CCC(N2C(=O)CN=C(c3ccccc3F)c3cc(F)ccc32)CC1 | 0.094 |
| CN1CCC(N2C(=O)CN=C(c3ccccc3F)c3cc(Cl)ccc32)CC1 | 0.042 |
| CN1CCC(N2C(=O)CN=C(c3ccccc3)c3ccccc32)CC1 | 2.3 |
